Assay results from ChEMBL document CHEMBL4725345, “DFG-1 Residue Controls Inhibitor Binding Mode and Affinity, Providing a Basis for Rational Design of Kinase Inhibitor Selectivity” (J Med Chem, 2020).
pKd, pKi: −log10 of the molar value.

Amino acid sequences for entries named in this document (tags omitted). A change or cut given only in a name is not applied to a line headed by its entry.
UniProt P48730: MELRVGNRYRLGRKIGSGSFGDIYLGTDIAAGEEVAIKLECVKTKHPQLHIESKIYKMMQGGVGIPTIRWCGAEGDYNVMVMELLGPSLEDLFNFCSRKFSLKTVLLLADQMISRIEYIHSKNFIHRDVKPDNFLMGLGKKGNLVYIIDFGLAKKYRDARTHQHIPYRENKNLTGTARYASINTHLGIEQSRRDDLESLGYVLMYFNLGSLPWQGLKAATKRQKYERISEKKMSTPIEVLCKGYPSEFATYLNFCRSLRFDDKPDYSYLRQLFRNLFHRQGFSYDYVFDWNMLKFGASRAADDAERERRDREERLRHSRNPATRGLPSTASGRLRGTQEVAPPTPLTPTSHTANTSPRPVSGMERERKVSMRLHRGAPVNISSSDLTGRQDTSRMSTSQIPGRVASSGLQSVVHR
UniProt P49761: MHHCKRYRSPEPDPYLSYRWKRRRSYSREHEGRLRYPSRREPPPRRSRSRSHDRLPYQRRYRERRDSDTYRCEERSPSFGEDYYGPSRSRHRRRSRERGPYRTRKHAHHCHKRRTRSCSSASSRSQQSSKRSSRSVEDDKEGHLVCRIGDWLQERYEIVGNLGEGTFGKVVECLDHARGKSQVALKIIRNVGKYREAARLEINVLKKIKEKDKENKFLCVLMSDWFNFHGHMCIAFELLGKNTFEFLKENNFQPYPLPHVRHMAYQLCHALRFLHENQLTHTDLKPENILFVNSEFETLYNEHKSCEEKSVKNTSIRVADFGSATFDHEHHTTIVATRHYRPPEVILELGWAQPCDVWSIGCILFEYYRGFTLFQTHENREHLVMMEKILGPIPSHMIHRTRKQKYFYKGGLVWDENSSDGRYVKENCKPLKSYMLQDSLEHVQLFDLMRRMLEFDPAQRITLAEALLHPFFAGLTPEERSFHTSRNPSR
UniProt P49674: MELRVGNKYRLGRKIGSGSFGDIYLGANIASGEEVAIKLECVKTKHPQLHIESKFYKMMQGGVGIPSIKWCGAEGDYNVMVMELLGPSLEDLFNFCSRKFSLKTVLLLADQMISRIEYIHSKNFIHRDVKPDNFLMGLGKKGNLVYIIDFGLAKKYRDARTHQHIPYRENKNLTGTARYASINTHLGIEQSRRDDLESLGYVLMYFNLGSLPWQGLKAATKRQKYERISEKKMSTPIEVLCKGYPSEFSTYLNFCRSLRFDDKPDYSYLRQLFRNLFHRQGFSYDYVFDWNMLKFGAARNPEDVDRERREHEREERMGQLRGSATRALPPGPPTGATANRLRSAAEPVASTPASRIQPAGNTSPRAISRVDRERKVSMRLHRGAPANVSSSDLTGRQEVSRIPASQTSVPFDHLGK
UniProt Q9HAZ1: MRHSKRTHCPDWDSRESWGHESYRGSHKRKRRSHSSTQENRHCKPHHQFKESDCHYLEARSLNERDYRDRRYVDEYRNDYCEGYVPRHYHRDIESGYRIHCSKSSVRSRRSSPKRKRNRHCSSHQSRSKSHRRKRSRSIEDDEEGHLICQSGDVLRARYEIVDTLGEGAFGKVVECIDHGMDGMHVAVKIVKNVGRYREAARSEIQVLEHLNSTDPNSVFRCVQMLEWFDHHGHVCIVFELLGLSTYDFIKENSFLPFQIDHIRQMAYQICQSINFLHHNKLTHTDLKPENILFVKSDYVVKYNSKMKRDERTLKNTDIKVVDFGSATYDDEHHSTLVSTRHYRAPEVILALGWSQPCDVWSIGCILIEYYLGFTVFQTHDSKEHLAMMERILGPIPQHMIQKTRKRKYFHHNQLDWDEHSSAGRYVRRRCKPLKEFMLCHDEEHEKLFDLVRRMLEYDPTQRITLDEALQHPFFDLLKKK

Experiments:
[1] = target: Casein kinase I isoform delta (Homo sapiens, UniProt P48730); assay: Binding affinity to CSNK1D (unknown origin)
[2] = target: T1, Dual specificity protein kinase CLK3 (Homo sapiens, UniProt P49761); assay: Inhibition of recombinant CLK3 (unknown origin) using Ac-ERMRPRKRQGSVdP(Sox)G-NH2 as substrate after 5 mins by Omnia Kinase Assay
[3] = target: Casein kinase I isoform epsilon (Homo sapiens, UniProt P49674); assay: Binding affinity to CSNK1E (unknown origin)
[4] = target: Dual specificity tyrosine-phosphorylation-regulated kinase 1A (Homo sapiens, UniProt Q13627); assay: Binding affinity to DYRK1A (unknown origin)
[5] = target: T1, Dual specificity protein kinase CLK3; assay: Inhibition of CLK3 (R134 to T484 residues) (unknown origin) at 15 uM by isothermal titration calorimetry
[6] = target: Dual specificity protein kinase CLK4 (Homo sapiens, UniProt Q9HAZ1); assay: Binding affinity to CLK4 (unknown origin)
[7] = target: T1, Dual specificity protein kinase CLK3; assay: Binding affinity to CLK3 (unknown origin)

Structure (SMILES): CCN1/C(=C\C(C)=O)Sc2ccc(OC)cc21
- pKd [1]: 7.00
- pKi [2]: 5.28
- pKd [3]: 7.00
- pKd [4]: 7.00
- pKd [5]: 5.11
- pKd [6]: > 7.00
- pKd [7]: 6.00
